Antibody variant affinities, Ab-95 light chain, assay 2

Data: MIT Lincoln Laboratory AlphaSeq set, Engelhart et al. 2022, doi:10.1038/s41597-022-01779-4, as distributed in FLAb.

Binding partner: SARS-CoV-2 spike HR2 peptide, sequence PDVDLGDISGINAS.

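The parent was found by panning a naive human phage display library on the peptide. Library AAYL52 holds single substitutions and randomly drawn double and triple substitutions in the CDRs. The scFvs were displayed on barcoded MATa yeast, the peptide on MATalpha yeast. The frequency of each diploid, read from paired DNA barcodes, reflects how well the two displayed proteins bind. Scores were corrected for input abundance and mapped to Kd with protein pairs of known affinity run in the same pool. Each pool was mated in three replicate cultures.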

The variants keep the heavy chain, the linker and the frameworks of Ab-95 (scFv order VH, the linker GGGGSGGGGSGGGGS, VL).
VH: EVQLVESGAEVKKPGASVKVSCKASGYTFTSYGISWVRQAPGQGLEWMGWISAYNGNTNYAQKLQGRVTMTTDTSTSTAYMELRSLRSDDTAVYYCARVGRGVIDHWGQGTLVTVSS
VL: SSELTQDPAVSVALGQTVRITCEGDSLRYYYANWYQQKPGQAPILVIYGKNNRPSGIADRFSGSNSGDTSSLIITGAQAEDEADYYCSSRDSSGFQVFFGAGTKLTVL

Each variant is given by its three light chain CDRs, as the data file delimits them; those of the parent are EGDSLRYYYAN, GKNNRPS, SSRDSSGFQVF.
Scale: log10 of Kd in nM, estimated from mating counts; low values are strong binders.
The mean shown is taken over the replicates in which the pair was detected.
"nd" marks a missing value. The strain was present, yet no cells mated with the target were sequenced in any replicate, which points to weak or no binding.
Order: sorted from the lowest average up, undetected variants last.
For reference, the parent read 2.31 as the reference entry and 2.25 as a member of this library.

| # | CDR-L1 | CDR-L2 | CDR-L3 | mean, log10 nM | seen in |
|---|---|---|---|---|---|
| 1 | EGDSLRYAYAN | GKNNRPS | SSRDVSGFQVF | 1.30 | 3/3 |
| 2 | EGDSLRYYDAN | GKNNRPS | SSRDSSSFQVF | 1.71 | 3/3 |
| 3 | EGDSLWYSYAN | GKNNRPS | SSRDSSGFFVF | 1.74 | 3/3 |
| 4 | EGDSLTYYPAN | GKNNRPS | SSRDESGFQVF | 1.74 | 3/3 |
| 5 | TGDSLRYYYAN | GKNNRPS | SSRDSWGFQVF | 2.28 | 3/3 |
| 6 | EFDSLRYYWAN | GKNNRPS | SSRDSSGFQVP | 2.30 | 3/3 |
| 7 | EGDSLRYYYAN | GKNARPS | SSTDSSWFQVF | 2.36 | 3/3 |
| 8 | EGDSLRYYYAN | GKNNRES | ISRDSSGFQVF | 2.49 | 1/3 |
| 9 | EGDSLRYYYAN | GKNNRPS | SSRDKTGFQVF | 2.73 | 3/3 |
| 10 | EGDSLRSYYAN | GKNLRPS | SSRDSSKFQVF | 2.73 | 3/3 |
| 11 | EGDSLEYYYAN | GKNNRPS | SSRDSSGFYFF | 2.75 | 1/3 |
| 12 | EGPSLRYYYAN | GKNNRPS | SSRDSSGFRVR | 2.78 | 3/3 |
| 13 | EGDSLRYYYAN | GKNNRPS | SSRDSNGVQVF | 2.82 | 2/3 |
| 14 | EGDSLRYYFAN | GKNNRPR | SSRDSSGFQVF | 2.91 | 3/3 |
| 15 | EGDSLRYYYAN | GKNNRPS | SSCSSSCFQVF | 3.05 | 1/3 |
| 16 | EGDSLFYYYAN | GKNNRPS | SSRDSSGFQIF | 3.06 | 3/3 |
| 17 | EGDSLRYYYEN | GKNNRPS | SSGDSMGFQVF | 3.09 | 1/3 |
| 18 | EGDSLRNYYAN | GKNNRPS | SSRRSSDFQVF | 3.11 | 1/3 |
| 19 | EGDSLRYYYAN | GKNNRPM | SSRDSDGFQVT | 3.22 | 3/3 |
| 20 | EGDCFRKYYAN | GKNNRPS | SSRDSSGFQVF | 3.32 | 3/3 |
| 21 | EGDSLRYYYAN | GKNNRPS | QSRCSSGFQVS | 3.46 | 1/3 |
| 22 | EGDSLRYYYAN | GKNNRPS | WSRMSSGFQVY | 3.61 | 2/3 |
| 23 | EHDSLRYYYAN | GKNPRPS | SSRDSSGFQVH | 3.64 | 3/3 |
| 24 | EGDSTRYYYAN | GKNNRDS | SSRDSSGFRVF | 3.74 | 1/3 |
| 25 | EGDSKHYYYAN | GKNNRPD | SSRDSSGFQVF | 3.81 | 2/3 |
| 26 | EVDSLRYTYAN | RKNNRPS | SSRDSSGFQVF | 3.83 | 1/3 |
| 27 | EGDCLRYYYAN | GKNNRPS | SSRCSSGFQVF | 3.86 | 2/3 |
| 28 | EGDSYRYYYAR | GKNNRPS | SSRDSQGFQVF | 3.88 | 2/3 |
| 29 | EGDSLRYYYAN | GKNIRPS | SFKDSSGFQVF | 3.94 | 3/3 |
| 30 | EGDSLRYYYYN | GKNNRPS | SSRCSSSFQVF | 3.95 | 1/3 |
| 31 | EGSSLRYYYAN | GKNNRPV | SSRDSSFFQVF | 3.97 | 1/3 |
| 32 | PGDSLRYYYAN | GKNNRPS | SSRDSSGGQVF | 3.99 | 2/3 |
| 33 | EGDSLQYYYAN | AKNNRPS | SSIDSSGFQVF | 4.01 | 1/3 |
| 34 | EGDSLRYFYIN | GKNNRPS | SSRDHSGFQVF | 4.16 | 2/3 |
| 35 | EGDSLRYYYIN | GMNNRQS | SSRDSSGFQVF | 4.19 | 1/3 |
| 36 | EKDSLRYYYAN | GKNNRPS | SGRDSDGFQVF | 4.21 | 1/3 |
| 37 | EGDELRYYYAN | GKGNRPS | SSRDSSGFQVV | 4.25 | 3/3 |
| 38 | ECDSLRYYYAN | GTNNRPS | SSRDSKGFQVF | 4.27 | 3/3 |
| 39 | EGDSLRYYYAN | GSSNRPS | SKRDSSGFQVF | 4.28 | 1/3 |
| 40 | EGDSLRYYYAN | GIDNRPS | SSRDSSGFQMF | 4.78 | 1/3 |
| 41 | EGDSLRYYYAN | QKNNRPS | YSRDSSKFQVF | nd | 0/3 |
| 42 | EGDSADYYWAN | GKNNRPS | SSRDSSGFQVF | nd | 0/3 |
| 43 | EGDSLRYYYNN | WKNNRPS | SSRDSSGFQVF | nd | 0/3 |
| 44 | EGDSLRYYPAN | GKNNRPS | SSVDSSLFQVF | nd | 0/3 |
| 45 | EGDSHRCYYAN | GKNNYPS | SSRDSSGFQVF | nd | 0/3 |
| 46 | EGDSLRYYQAN | GKRNRPS | SSMDSSGFQVF | nd | 0/3 |
| 47 | EGDSLRYYYAN | GFNNRPS | NDRDSSGFQVF | nd | 0/3 |

Picked from the list: the 4 lowest averages where every replicate gave a value.

CDR-L1	CDR-L2	CDR-L3	mean, log10 nM	seen in
EGDSLRYAYAN	GKNNRPS	SSRDVSGFQVF	1.30	3/3
EGDSLRYYDAN	GKNNRPS	SSRDSSSFQVF	1.71	3/3
EGDSLWYSYAN	GKNNRPS	SSRDSSGFFVF	1.74	3/3
EGDSLTYYPAN	GKNNRPS	SSRDESGFQVF	1.74	3/3

Empty control strains, which show no peptide, gave a signal in 28% of pairings with library AAYL52; the median was 3.91 and 95% of these signals were weaker than 2.90. No background was subtracted.